{"source": "patent US20130210034A1", "about": "“COMPLEX PHOSPHOPROTEIN ACTIVATION PROFILES” (BECKMAN COULTER, INC., priority 2005, published 2013);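 as to pERK S/N ratio: Phosphoprotein MFI normalized to lymphocyte MFI as internal negative control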;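 as to pSTAT3 S/N ratio: Phosphoprotein MFI normalized to lymphocyte MFI as internal negative control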;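 as to pSTAT5 S/N ratio: Phosphoprotein MFI normalized to lymphocyte MFI as internal negative control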", "type_in_all_cases": "cell-based, human", "key": {"pERK [1]": {"tested_on": "pERK", "assay": "Cytokine-stimulated phosphorylation in AML cell populations (BM or PB of AML patients)", "conditions": "patient AML8 (Example 3)", "experimental": "To assess the signal transduction response after growth factor simulation, a series comprising two sets of tubes including about 3×10^6 cells/100 μL were incubated at 37° C. for 30 minutes. After this pre-incubation period, tubes with then processes with either a stimulant or inhibitor. For signal stimulation, tubes were incubated at 2 minutes, 3.5 minutes, 7 minutes, 15 minutes, and 30 minutes with one of the following cytokines to stimulate protein phosphorylation: 10 ng/100 μL SCF, 50 ng/100 μL FL, 10 ng/100 μL GM-CSF, 10 ng/100 μL IL-3, or 10 ng/100 μL G-CSF. […] Stained cells were examined using either GALIOS flow cytometer (Beckman Coulter) or CYAN ADP (Beckman Coulter) equipped with 488 nm, 405 nm and 635 nm lasers to detect the degree of fluorescence. Data were analyzed using FCS Express (De Novo Software, CA) analysis software.\n(§1) Specific phosphoprotein expression of pERK, pS6, pAKT, pSTAT5, and pSTAT3 was examined in seven discrete phenotypically defined populations based on 7-color immunophenotyping (FIG. 1). The percent of responding (phosphorprotein positive) cells for each of these populations was determined from individual single parameter histograms based on a fixed integration region set on the inhibitor treated control at about 3% positives. […]"}, "pSTAT3": {"tested_on": "pSTAT3", "assay": "Cytokine-stimulated phosphorylation in immunophenotypically defined cell populations from healthy donor BM (flow cytometry)", "conditions": "mean ± SD", "experimental": "(§2) Bone marrow (BM) samples were collected in 7.5 mL Iscove's modified Dulbecco's medium (IMDM) supplemented with 100U penicillin, 0.01 mg/mL streptomycin, and 70 μg/mL heparin sodium salt from 10 patients undergoing hip replacement surgery, who were otherwise healthy. These patients were from a pool of surgery patients, age 49 to 77, and represented 7 female and 8 male patients. Wright Giemsa stained slides prepared from these samples were examined by Hematopathologist (AC) to confirm that no underlying hematological disorders were present. These BM samples were rinsed twice with IMDM to release cells, filtered using a 100 μm Nylon cell strainer to remove marrow particles, and centrifuged for at RT fro 7 minutes at 200 g. The cell pellet was washed twice with sterile IMDM to remove traces of fat and re-suspended in IMDM to a concentration of 3×10^7 cells/mL.\n(§3) To assess the signal transduction response after growth factor simulation, a series comprising two sets of tubes including about 3×10^6 cells/100 μL were incubated at 37° C. for 30 minutes. After this pre-incubation period, tubes with then processes with either a stimulant or inhibitor. For signal stimulation, tubes were incubated at 2 minutes, 3.5 minutes, 7 minutes, 15 minutes, and 30 minutes with one of the following cytokines to stimulate protein phosphorylation: 10 ng/100 μL SCF, 50 ng/100 μL FL, 10 ng/100 μL GM-CSF, 10 ng/100 μL IL-3, or 10 ng/100 μL G-CSF. To examine the effects of protein phosphorylation inhibition, tubes were incubated with an inhibitor cocktail comprising 100 μM/100 μL UO126, 1 μM/100 μL LY294002, and 1 μM/100 μL rapamycin. One unstimulated tube receiving no stimulant or inhibitor was processed to assess basal levels of phospho-protein expression. After stimulation the cells were immediately fixed in 10% formaldehyde solution at 37° C. Pre-labeling with CD13, CD16 and CD64 antibodies was carried out 20 minutes prior to formaldehyde fixation. After fixation, one set of tubes was permeabilized without methanol for pAKT, pERK and pS6 staining and the other for 80% methanol permeabilized for pSTAT3 and pSTAT5 staining. After permeablization, the cells were washed in PBS with 2% BSA and blocked by re-suspended in 75 μL of PBS comprising 25% heat inactivated normal mouse serum, 25% normal rabbit serum. To stain cells with fluorescent conjugated monoclonal antibodies, samples were incubated on ice for 45 minutes in 100 μL of an antibody staining solution including either: 1) CD15-Pacific Orange, CD34-Phycoerythrin-Texas Red, CD117-Phycoerythrin-Cyanin 5.5, CD45-Allophycocyanin-Alexa Fluor 750 (or CD45-Pacific Orange, in which case CD15-Pacific Orange was omitted), pS6-Pacific Blue, pERK-Alexa Fluor 488 and pAKT-Alexa Fluor 647 or 2) CD15-Pacific Orange, CD34-Phycoerythrin-Texas Red, CD117-Phycoerythrin-Cyanin 5.5, CD45-Allophycocyanin-Alexa Fluor 750 or CD45-Pacific Blue, pSTAT3-Alexa Fluor 488 and pSTAT5-Phycoerythrin. The stained cells were washed twice with ice cold PBS containing 2% BSA and centrifuged at 800 g for 6 minutes at 4° C. The supernatant was discarded and cells re-suspended in 250 μL of chilled wash buffer for data acquisition. Stained cells were examined using either GALIOS flow cytometer (Beckman Coulter) or CYAN ADP (Beckman Coulter) equipped with 488 nm, 405 nm and 635 nm lasers to detect the degree of fluorescence. Data were analyzed using FCS Express (De Novo Software, CA) analysis software.\nas §1"}, "pSTAT5": {"tested_on": "pSTAT5", "assay": "Cytokine-stimulated phosphorylation in immunophenotypically defined cell populations from healthy donor BM (flow cytometry)", "conditions": "mean ± SD", "experimental": "as §2, §3, §1"}, "pERK [2]": {"tested_on": "pERK", "assay": "Cytokine-stimulated phosphorylation in immunophenotypically defined cell populations from healthy donor BM (flow cytometry)", "conditions": "for pERK Percent (%) Responding Cells, Mean / pERK S/N ratio: healthy donor BM, mean ± SD", "experimental": "as §2, §3, §1"}, "[3]": {"conditions": "CD34^+ (CD34^+/CD117^+ cells), listed as IL3"}, "[4]": {"conditions": "G1, immature myeloid cells, listed as IL3"}, "[5]": {"conditions": "G3, mature myeloid cells, listed as IL3"}}}
{"molecule": "Interleukin- 3 (protein, UniProt P08700 20-152, looked up, colony-stimulating cytokine) Interleukin-3: APMTQTTPLKTSWVNCSNMIDEIITHLKQPPLPLLDFNNLNGEDQDILMENNLRRPNLEAFNRAVKSLQNASAIESILKNLLPCLPLATAAPTRHPIHIKDGDWNEFRRKLTFYLKTLENAQAQQTTLSLAIF", "values": [{"measurement": "pERK, AML Sample", "setting": "pERK [1]", "value": 57.3}, {"measurement": "pSTAT3 Percent (%) Responding Cells, Mean", "setting": "pSTAT3; CD34^+ (CD34^+/CD117^+ cells)", "value": "9.3 ± 6.1", "unit": "%"}, {"measurement": "pSTAT3 S/N ratio", "setting": "pSTAT3; CD34^+ (CD34^+/CD117^+ cells)", "value": "1.9 ± 0.4"}, {"measurement": "pSTAT3 Percent (%) Responding Cells, Mean", "setting": "pSTAT3; CD117^+ (CD34^−/CD117^+ cells)", "value": "5.6 ± 4.3", "unit": "%"}, {"measurement": "pSTAT3 S/N ratio", "setting": "pSTAT3; CD117^+ (CD34^−/CD117^+ cells)", "value": "2.6 ± 0.6"}, {"measurement": "pSTAT3 Percent (%) Responding Cells, Mean", "setting": "pSTAT3; G1, immature myeloid cells", "value": "6.2 ± 5.2", "unit": "%"}, {"measurement": "pSTAT3 S/N ratio", "setting": "pSTAT3; G1, immature myeloid cells", "value": "3.3 ± 0.6"}, {"measurement": "pSTAT3 Percent (%) Responding Cells, Mean", "setting": "pSTAT3; G2, intermediate myeloid cells", "value": "4.6 ± 2.7", "unit": "%"}, {"measurement": "pSTAT3 S/N ratio", "setting": "pSTAT3; G2, intermediate myeloid cells", "value": "3.3 ± 0.7"}, {"measurement": "pSTAT3 Percent (%) Responding Cells, Mean", "setting": "pSTAT3; G3, mature myeloid cells", "value": "7.5 ± 5.6", "unit": "%"}, {"measurement": "pSTAT3 S/N ratio", "setting": "pSTAT3; G3, mature myeloid cells", "value": "3.7 ± 0.7"}, {"measurement": "pSTAT3 Percent (%) Responding Cells, Mean", "setting": "pSTAT3; Mono, monocytes", "value": "4.9 ± 2.9", "unit": "%"}, {"measurement": "pSTAT3 S/N ratio", "setting": "pSTAT3; Mono, monocytes", "value": "2.3 ± 0.4"}, {"measurement": "pSTAT5 Percent (%) Responding Cells, Mean", "setting": "pSTAT5; CD34^+ (CD34^+/CD117^+ cells)", "value": 76, "unit": "%"}, {"measurement": "pSTAT5 S/N ratio", "setting": "pSTAT5; CD34^+ (CD34^+/CD117^+ cells)", "value": "19.3 ± 8.9"}, {"measurement": "pSTAT5 Percent (%) Responding Cells, Mean", "setting": "pSTAT5; [3]", "value": "76.0 ± 7.5", "unit": "%"}, {"measurement": "pSTAT5 Percent (%) Responding Cells, Mean", "setting": "pSTAT5; CD117^+ (CD34^−/CD117^+ cells)", "value": "59.3 ± 16.0", "unit": "%"}, {"measurement": "pSTAT5 S/N ratio", "setting": "pSTAT5; CD117^+ (CD34^−/CD117^+ cells)", "value": "12.4 ± 2.0"}, {"measurement": "pSTAT5 Percent (%) Responding Cells, Mean", "setting": "pSTAT5; G1, immature myeloid cells", "value": "96.6 ± 3.1", "unit": "%"}, {"measurement": "pSTAT5 S/N ratio", "setting": "pSTAT5; G1, immature myeloid cells", "value": 13.8}, {"measurement": "pSTAT5 S/N ratio", "setting": "pSTAT5; [4]", "value": "13.8 ± 3.0"}, {"measurement": "pSTAT5 Percent (%) Responding Cells, Mean", "setting": "pSTAT5; G2, intermediate myeloid cells", "value": "98.7 ± 0.7", "unit": "%"}, {"measurement": "pSTAT5 S/N ratio", "setting": "pSTAT5; G2, intermediate myeloid cells", "value": "14.2 ± 3.2"}, {"measurement": "pSTAT5 Percent (%) Responding Cells, Mean", "setting": "pSTAT5; G3, mature myeloid cells", "value": "98.2 ± 1.4", "unit": "%"}, {"measurement": "pSTAT5 S/N ratio", "setting": "pSTAT5; G3, mature myeloid cells", "value": 17.7}, {"measurement": "pSTAT5 S/N ratio", "setting": "pSTAT5; [5]", "value": "17.7 ± 3.8"}, {"measurement": "pSTAT5 Percent (%) Responding Cells, Mean", "setting": "pSTAT5; Mono, monocytes", "value": "90.7 ± 4.3", "unit": "%"}, {"measurement": "pSTAT5 S/N ratio", "setting": "pSTAT5; Mono, monocytes", "value": 13.5}, {"measurement": "pSTAT5 S/N ratio", "setting": "pSTAT5; Mono, monocytes, listed as IL3", "value": "13.5 ± 4.0"}, {"measurement": "pERK Percent (%) Responding Cells, Mean", "setting": "pERK [2]; CD34^+ (CD34^+/CD117^+ cells)", "value": 26, "unit": "%"}, {"measurement": "pERK S/N ratio", "setting": "pERK [2]; CD34^+ (CD34^+/CD117^+ cells)", "value": 12.2}, {"measurement": "pERK Percent (%) Responding Cells, Mean", "setting": "pERK [2]; [3]", "value": "26.2 ± 9.1", "unit": "%"}, {"measurement": "pERK S/N ratio", "setting": "pERK [2]; [3]", "value": "12.2 ± 3.5"}, {"measurement": "pERK Percent (%) Responding Cells, Mean", "setting": "pERK [2]; CD117^+ (CD34^−/CD117^+ cells)", "value": "10.0 ± 7.1", "unit": "%"}, {"measurement": "pERK S/N ratio", "setting": "pERK [2]; CD117^+ (CD34^−/CD117^+ cells)", "value": "2.7 ± 0.6"}, {"measurement": "pERK Percent (%) Responding Cells, Mean", "setting": "pERK [2]; G1, immature myeloid cells", "value": 25.6, "unit": "%"}, {"measurement": "pERK S/N ratio", "setting": "pERK [2]; G1, immature myeloid cells", "value": "4.3 ± 1.6"}, {"measurement": "pERK Percent (%) Responding Cells, Mean", "setting": "pERK [2]; [4]", "value": "25.6 ± 26.2", "unit": "%"}, {"measurement": "pERK Percent (%) Responding Cells, Mean", "setting": "pERK [2]; G2, intermediate myeloid cells", "value": "47.4 ± 30.0", "unit": "%"}, {"measurement": "pERK S/N ratio", "setting": "pERK [2]; G2, intermediate myeloid cells", "value": "5.7 ± 2.4"}, {"measurement": "pERK Percent (%) Responding Cells, Mean", "setting": "pERK [2]; G3, mature myeloid cells", "value": 41.1, "unit": "%"}, {"measurement": "pERK S/N ratio", "setting": "pERK [2]; G3, mature myeloid cells", "value": "6.2 ± 2.3"}, {"measurement": "pERK Percent (%) Responding Cells, Mean", "setting": "pERK [2]; [5]", "value": "41.1 ± 18.1", "unit": "%"}, {"measurement": "pERK Percent (%) Responding Cells, Mean", "setting": "pERK [2]; Mono, monocytes", "value": "41.8 ± 19.4", "unit": "%"}, {"measurement": "pERK S/N ratio", "setting": "pERK [2]; Mono, monocytes", "value": 11.4}, {"measurement": "pERK S/N ratio", "setting": "pERK [2]; Mono, monocytes, listed as IL3", "value": "11.4 ± 4.7"}, {"measurement": "pERK, Normal Sample", "setting": "pERK [2]; Table 7 comparison value, matches percent responding CD34^+ cells of Tables 1-5", "value": 26.2}]}
